# According to patent US6593335B1, “Potassium channel openers” (Abbott Laboratories, priority 1997, dated 2003):
# Sequences of proteins named here, by UniProt entry; tags and fusion partners are left off. Residues count along the entry.
# UniProt A0A286XYR9, 1-1546: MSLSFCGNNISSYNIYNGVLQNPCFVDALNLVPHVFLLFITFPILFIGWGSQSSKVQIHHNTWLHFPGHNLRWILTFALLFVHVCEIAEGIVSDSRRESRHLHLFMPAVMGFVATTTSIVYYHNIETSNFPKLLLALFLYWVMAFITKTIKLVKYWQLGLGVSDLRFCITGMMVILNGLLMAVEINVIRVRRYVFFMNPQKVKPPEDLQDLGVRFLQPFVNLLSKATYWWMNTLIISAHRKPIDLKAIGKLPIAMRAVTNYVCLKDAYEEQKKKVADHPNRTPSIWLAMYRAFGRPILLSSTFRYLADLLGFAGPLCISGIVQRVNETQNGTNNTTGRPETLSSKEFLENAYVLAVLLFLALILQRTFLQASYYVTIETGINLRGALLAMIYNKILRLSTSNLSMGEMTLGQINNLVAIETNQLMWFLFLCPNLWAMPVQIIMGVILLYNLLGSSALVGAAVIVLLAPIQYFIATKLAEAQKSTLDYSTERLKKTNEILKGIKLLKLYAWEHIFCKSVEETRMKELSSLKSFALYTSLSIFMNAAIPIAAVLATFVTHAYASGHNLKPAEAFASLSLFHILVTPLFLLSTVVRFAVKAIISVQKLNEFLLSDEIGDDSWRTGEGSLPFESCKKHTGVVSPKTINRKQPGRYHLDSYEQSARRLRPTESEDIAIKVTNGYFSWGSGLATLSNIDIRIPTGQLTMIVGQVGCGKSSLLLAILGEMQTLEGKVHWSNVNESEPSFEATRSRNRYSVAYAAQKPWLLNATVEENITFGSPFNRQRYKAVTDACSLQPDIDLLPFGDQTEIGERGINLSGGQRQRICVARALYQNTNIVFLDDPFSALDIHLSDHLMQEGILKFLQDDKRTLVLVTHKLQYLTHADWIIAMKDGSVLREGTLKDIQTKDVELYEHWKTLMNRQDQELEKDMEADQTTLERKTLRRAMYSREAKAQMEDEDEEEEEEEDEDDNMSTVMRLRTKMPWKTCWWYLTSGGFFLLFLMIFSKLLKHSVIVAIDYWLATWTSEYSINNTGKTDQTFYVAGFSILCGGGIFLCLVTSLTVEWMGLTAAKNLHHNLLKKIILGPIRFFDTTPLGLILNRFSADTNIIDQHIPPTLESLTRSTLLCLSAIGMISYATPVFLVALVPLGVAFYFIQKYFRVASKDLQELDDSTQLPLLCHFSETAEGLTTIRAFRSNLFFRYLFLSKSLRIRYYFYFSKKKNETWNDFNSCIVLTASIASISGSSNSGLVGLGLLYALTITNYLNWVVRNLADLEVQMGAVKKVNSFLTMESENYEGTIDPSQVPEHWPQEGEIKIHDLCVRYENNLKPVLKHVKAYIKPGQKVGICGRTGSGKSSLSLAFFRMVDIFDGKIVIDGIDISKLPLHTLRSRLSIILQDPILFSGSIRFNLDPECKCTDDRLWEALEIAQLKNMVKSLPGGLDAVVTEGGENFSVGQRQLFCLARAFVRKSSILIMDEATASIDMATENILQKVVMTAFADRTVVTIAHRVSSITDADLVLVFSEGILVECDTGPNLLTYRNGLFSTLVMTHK
# Molecular target: potassium channels (Cavia porcellus, UniProt A0A286XYR9)
# Assay: Membrane hyperpolarization (MHP) assay in primary cultured guinea-pig urinary bladder (GPB) cells, DiBAC(4)3 FLIPR
# Type: cell-based
# Settings: concentration that elicits 50% of the maximal response for the test sample
# Method: Determination of Potassium Channel Opening Activity Membrane Hyperpolarization Assays Compounds were evaluated for potassium channel opening activity using the rat thoracic aorta smooth muscle AI 0 cell line or primary cultured guinea-pig urinary bladder (GPB) cells. The AI0 cell line was purchased from the American Type Culture Collection (Rockville, MD; Cat # 30-2002). […] Louis, MO) and 0.2 mg/mL ronase (Calbiochem, La Jolla, CA) with continuous stirring in a cell incubator for 30 minutes. The mixture was then centrifuged at 1300 x g for 5 minutes, and the pellet resuspended in Dulbecco's PBS (GIBCO, Gaithersburg, MD) and recentrifuged to remove residual enzyme. […] Functional activity at potassium channels was measured by evaluating changes in membrane potential using the bis-oxonol dye DiBAC(4)3 (Molecular Probes) in a 96-well cell-based kinetic assay system, Fluorescent Imaging Plate Reader (FLIPR) (K.S. Schroeder et al., J. Biomed. Screen., v. I pp. 75-81 (1996)). […] With increasing membrane potential (for example, K+depolarization), the probe further partitions into the cell; this is measured as an increase in fluorescence due to dye interaction with intracellular lipids and proteins. Conyersely, decreasing membrane potential (hyperpolarization by potassium channel openers) evokes a decrease in fluorescence. […] Changes in fluorescence were monitored for an additional 25 minutes. […]
substance,measurement,value
"8-(3-bromo-4-fluorophenyl)-6-trifluoromethyl-5,8-dihydrothiopyrano[3 .2-b]pyridine, 1,1-dioxide [Example 159]",EC50,320 nM
